Source: patent publication US11753399B2, “Therapeutic compounds” (Gilead Sciences, Inc., priority 2018, dated 2023)

Assay: Test B: Cytotoxicity Assay (same protocol as Test A, uninfected cells)
Format: cell-based
Conditions: human, uninfected MT-4 cells, CellTiter-Glo
Protocol: MT-4 cells were next mixed with HIV-IIIb at a multiplicity of infection (m.o.i.) of 0.003 for 1 hour, after which time 35 μL of virus/cell mixture (2000 cells) was immediately added to each well containing 40 μL of diluted compound. The plates were then incubated at 37° C. for 5 days. After 5 days of incubation, 25 μl of 2× concentrated CellTiter-Glo Reagent (catalog #G7571, Promega Biosciences, Inc., Madison, Wis.) was added to each well containing MT-4 cells. Cell lysis was carried out by incubating at room temperature for 10 min and then chemiluminescence was read. […] Compound cytotoxicity and the corresponding CC50 values was determined using the same protocol as described in the antiviral assay (Test A) except that uninfected cells were used.

SMILES: Cn1nc(NS(C)(=O)=O)c2c(Cl)ccc(-c3ccc(C#CC(C)(C)S(=O)(=O)C4CC4)nc3[C@H](Cc3cc(F)cc(F)c3)NC(=O)Cn3nc(C(F)F)c4c3C(F)(F)[C@@H]3C[C@H]43)c21 [Example 4]
- CC50 at 5 days: > 44.1 µM
